Reference: patent US20230310445A1, “LOX ENZYME INHIBITING METHODS AND COMPOSITIONS” (ANOVIA BIOSCIENCES, INC., priority 2020, published 2023)
Read-outs that look alike come from different tables or passages of the source.

Sequences of proteins named here, by UniProt entry; tags and fusion partners are left off. Residues count along the entry.
UniProt P33072, 170-418 limits assumed: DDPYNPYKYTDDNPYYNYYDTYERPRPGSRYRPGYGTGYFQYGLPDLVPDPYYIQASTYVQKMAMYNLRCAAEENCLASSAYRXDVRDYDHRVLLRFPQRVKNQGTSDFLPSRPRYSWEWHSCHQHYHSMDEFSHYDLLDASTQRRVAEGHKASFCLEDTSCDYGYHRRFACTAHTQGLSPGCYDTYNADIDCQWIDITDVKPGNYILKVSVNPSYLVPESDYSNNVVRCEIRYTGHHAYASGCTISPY
UniProt Q9Y4K0, 26-774 limits assumed: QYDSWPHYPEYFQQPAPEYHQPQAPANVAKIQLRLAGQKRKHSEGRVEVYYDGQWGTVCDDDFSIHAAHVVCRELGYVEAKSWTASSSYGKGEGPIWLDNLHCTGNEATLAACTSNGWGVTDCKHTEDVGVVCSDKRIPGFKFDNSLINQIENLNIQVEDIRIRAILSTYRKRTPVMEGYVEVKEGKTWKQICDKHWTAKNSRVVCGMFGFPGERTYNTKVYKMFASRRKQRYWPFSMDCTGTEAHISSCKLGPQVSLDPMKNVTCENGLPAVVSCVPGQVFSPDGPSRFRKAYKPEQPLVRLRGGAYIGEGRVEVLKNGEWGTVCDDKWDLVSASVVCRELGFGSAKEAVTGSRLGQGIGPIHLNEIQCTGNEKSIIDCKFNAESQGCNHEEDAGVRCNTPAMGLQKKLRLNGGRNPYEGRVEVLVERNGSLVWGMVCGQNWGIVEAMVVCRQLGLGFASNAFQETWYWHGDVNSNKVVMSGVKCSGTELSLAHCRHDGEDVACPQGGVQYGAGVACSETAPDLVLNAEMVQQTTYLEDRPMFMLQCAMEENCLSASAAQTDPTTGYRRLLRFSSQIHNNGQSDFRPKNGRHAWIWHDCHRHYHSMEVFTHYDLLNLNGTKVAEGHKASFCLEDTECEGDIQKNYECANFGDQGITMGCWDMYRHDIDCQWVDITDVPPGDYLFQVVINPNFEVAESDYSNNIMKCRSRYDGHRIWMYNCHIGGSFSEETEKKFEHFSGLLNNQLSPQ
UniProt P58215, 26-753 limits assumed: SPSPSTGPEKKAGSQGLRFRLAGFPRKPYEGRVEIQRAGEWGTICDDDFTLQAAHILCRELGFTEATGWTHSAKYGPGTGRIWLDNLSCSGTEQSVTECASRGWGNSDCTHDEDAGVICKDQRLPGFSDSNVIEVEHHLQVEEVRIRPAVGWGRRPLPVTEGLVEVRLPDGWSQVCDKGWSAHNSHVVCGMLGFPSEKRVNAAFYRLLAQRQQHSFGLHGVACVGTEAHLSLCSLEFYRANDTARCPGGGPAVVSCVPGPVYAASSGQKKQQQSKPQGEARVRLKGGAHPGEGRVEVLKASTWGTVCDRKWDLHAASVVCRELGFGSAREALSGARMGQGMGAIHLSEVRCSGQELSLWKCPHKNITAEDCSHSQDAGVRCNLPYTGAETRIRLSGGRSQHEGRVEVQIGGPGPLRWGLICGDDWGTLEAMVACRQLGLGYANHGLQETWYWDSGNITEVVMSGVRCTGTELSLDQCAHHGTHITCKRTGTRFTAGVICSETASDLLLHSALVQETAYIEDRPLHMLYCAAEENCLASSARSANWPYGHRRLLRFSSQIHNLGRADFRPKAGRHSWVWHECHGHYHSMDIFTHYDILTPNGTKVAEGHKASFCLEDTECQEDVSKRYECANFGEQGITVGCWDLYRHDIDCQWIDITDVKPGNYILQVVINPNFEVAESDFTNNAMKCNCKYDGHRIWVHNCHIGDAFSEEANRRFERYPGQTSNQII

How the values were obtained:
[1] = target: Bovine lysyl oxidase (LOX) (Bos taurus, UniProt P33072); assay: LOX inhibition assay (fluorometric, cadaverine/Amplex Red/HRP); details: read-out: Activity Range LOX, IC50 class, bovine tendon LOX, cadaverine substrate
Description: (§1) The ability of compounds to inhibit prototypic LOX was determined using a fluorometric assay. This assay measures the activity of lysyl oxidases by coupling the reaction with horseradish peroxidase-catalyzed […]. The activity assay protocol uses cadaverine as substrate that releases hydrogen peroxide upon transformation by prototypic LOX enzyme present in the sample. Hydrogen peroxide is in turn detected using a red fluorescence substrate for HRP-coupled reactions (Amplex Red Enzyme Assays, Thermo Scientific Fisher). This leads to increase in fluorescence that can be easily detected at Ex/Em=540/590 nm in a fluorescence microplate reader.
Enzyme: Bovine lysyl oxidase (LOX) was extracted by adapting the methodology from [Kagan et al. 1979 and Borel et al. 2001.] from bovine tendon: Frozen adult bovine tendon was placed in room temperature water to defrost, and then membranes were removed and the remaining tissue cut into 1 cm pieces. The material was first passed through a course mesh meat grinder, and this mince was passed through a fine mesh grinder. The mince was homogenized in 10 v/w of buffer (16 mM sodium phosphate buffer pH 7.8, 400 mM NaCl) using a Waring blender. The homogenate was centrifuged at 15,000×g for 15 min at 4° C. After centrifugation, the supernatant was discarded and the pellets resuspended in 10 volumes of the same buffer. The mixture was blended again and centrifuged with the same settings. This time the pellets were blended in 3 volumes of extraction buffer (16 mM sodium phosphate buffer pH 7.8) and left to incubate at 4° C. for 2 h. After this time, the slurry was centrifuged with the same settings as described above. The supernatant was used in an ultrafiltration step to remove large proteins by size exclusion through a 30 kDalton filter (EMD Millipore). The filtrate was mixed with DEAE Sephadex (GE Healthcare), or passed over a MonoQ FPLC column. After two washes, one in 16 mM sodium phosphate buffer pH 7.8, 380 mM NaCl, and another in 16 mM sodium phosphate buffer pH 7.8, the proteins were eluted with 16 mM sodium phosphate pH 7.8, 10 μM CuSO4, and 4 M urea. Fractions containing Lox activity were collected and stored frozen at −70° C.
Reaction: Final concentration in the LOX assay was as following and performed in a total volume of […]:
Experimental procedure: 7 μl of freshly prepared reaction buffer were delivered to reaction wells. […] Progress of reactions was monitored for 120 minutes at 37° C. using Clariostar plate reader (ex530-12, ems 600-40). […]
(§2) Data analysis: Slope of the linear portion of the progress curve was calculated using Clariostar software. […] Data was analyzed using GraphPad Prism 4 with “sigmoidal dose-response (variable slope)”; 4 parameters with Hill Slope. […]

[2] = target: Recombinant human LOXL2 (lysyl oxidase like 2) (Homo sapiens, UniProt Q9Y4K0); assay: LOXL2 inhibition assay (fluorometric, cadaverine/Amplex Red/HRP); details: read-out: Activity Range LOXL2, IC50 class, recombinant human LOXL2, cadaverine substrate
Description: as §1, with “inhibit one or more of the lysyl oxidases LOXL2 and/or LOXL3” for “inhibit prototypic LOX”, “by the specific” for “by prototypic”, “LOX family” for “LOX”
Enzymes: Recombinant human LOXL2 (lysyl oxidase like 2) and recombinant human LOXL3 (lysyl oxidase like 3) were purchased from R&D systems and assays were performed in 1.2 M urea, 50 mM sodium borate buffer pH 8.0, and 10 mM CaCl.
Reaction: Final concentration in the LOXL2 and LOXL3 assays were as following and performed in a total volume of […]:
Experimental procedure: 5 μl of freshly prepared reaction buffer were delivered to reaction wells. Compounds were resuspended in 100% DMSO at 10 mM and delivered into buffer using acoustic technology (Echo550; nanoliter range). A 3× solution of LOXL2 or LOXL3 in reaction buffer was prepared (“enzyme solution”) and 5 μL of enzyme solution was added into the reaction wells. Buffer only was added to column 1 for no protein control. Reactions were incubated for 30 minutes at 37° C. A 3×mixture of cadaverine, Amplex Red, and HRP (“Substrate/Detection Mix) was prepared and subsequently 5 μL of the mixture added to each reaction well. Progress of reactions was monitored for 60 minutes at 37° C. using Clariostar plate reader (ex 530-12, ems 600-40). For all activity assays, pan-LOX inhibitor CCT365623 (Tang et al, 2017) and LOXL2/LOXL3 inhibitor PAT-1251 (PharmaKea) were included as standards.
Data analysis: Slope of the linear portion of the progress curve was calculated using Clariostar software. Typical analysis interval was between 8-30 min, but varied between experiments. The background subtracted signals (No protein wells are considered as background) were converted to % activity relative to DMSO controls. Data was analyzed using GraphPad Prism 4 with “sigmoidal dose-response (variable slope)”; 4 parameters with Hill Slope. Constraints: Bottom=Constant equal to 0. Top=Must be less than 120.

[3] = target: Recombinant human LOXL3 (lysyl oxidase like 3) (Homo sapiens, UniProt P58215); assay: LOXL3 inhibition assay (fluorometric, cadaverine/Amplex Red/HRP); details: read-out: Activity Range LOXL3, IC50 class, recombinant human LOXL3, cadaverine substrate
Description: as §1, with “inhibit one or more of the lysyl oxidases LOXL2 and/or LOXL3” for “inhibit prototypic LOX”, “by the specific” for “by prototypic”, “LOX family” for “LOX”
Enzymes: Recombinant human LOXL2 (lysyl oxidase like 2) and recombinant human LOXL3 (lysyl oxidase like 3) were purchased from R&D systems and assays were performed in 1.2 M urea, 50 mM sodium borate buffer pH 8.0, and 10 mM CaCl. […]
Experimental procedure: 5 μl of freshly prepared reaction buffer were delivered to reaction wells. […] Progress of reactions was monitored for 60 minutes at 37° C. using Clariostar plate reader (ex 530-12, ems 600-40). […]
as §2

[4] = Microsome stability study; details: tested form: TFA
Description: Pooled CD-1 mouse liver microsomes at 0.5 mg/mL were pre-incubated in phosphate buffer (100 mM, pH 7.4) containing 1 mM NADPH and 3 mM MgCl2 in a 96-well plate for 5 minutes at 37° C. Ultra-pure water was added instead of NADPH in the negative control group to exclude the misleading factor that resulted from instability of chemical itself. The reaction was initiated by adding test compound at the final concentration of 2 μM and incubated at 37° C. Aliquots were taken from the incubation at 0, 15, 30, 45 and 60 minutes followed by the addition of 4 volume of cold acetonitrile containing internal standards. Samples were centrifuged and supernatant was used for LC-MS/MS analysis.

[5] = PK study following IV and PO administration in male CD1 mice; set-up: AUClast/D: unit: (ng*h/mL)/(mg/kg); details: tested form: TFA
Description: The objective of this study was to determine the pharmacokinetic (PK) profile of LOX enzyme inhibiting compounds following IV and PO administrations in male CD1 mice.
Male CDT mice from a qualified provider were used for all studies. Mice were 6-8 weeks old at the time of the experiment (˜20-30 g body weight). All animals for IV & PO administration were fasted overnight and fed after 4 hours collection. The dose formulation was kept at room temperature no more than 2 hours.
Dose formulations were prepared fresh on the day of dosing and stored at ambient temperature. Dose formulations were as following: […]
Blood samples were collected from the dorsal metatarsal vein. Circa 0.03 mL were collected per time point and 0.3 mL at final time point via heart puncture. The blood samples were centrifuged at 4000 g for 5 minutes at 4° C. to obtain plasma and samples were immediately frozen in the upright position and stored at −75±15° C. prior to analysis.
Blood samples were collected at time points outlined in Table 12:
Acceptable time ranges for blood collection were as following: 5 min and 15 min: within +0.25 minute, 30 min, 1 hour, and 2 hours: within +2 minutes; 4 hours, 6 hours, 8 hours, and 24 hours: within +10 minutes.
Concentrations of LOX enzyme inhibiting compounds in the plasma were analyzed using a LC-MS/MS method. WinNonlin (Phoenix™, version 8.2) software was used for pharmacokinetic calculations. The following pharmacokinetic parameters were calculated, whenever possible from the plasma concentration versus time data:
IV administration: T1/2, C0, AUClast, AUCinf, MRTinf, Cl, Vss, Number of Points for Regression.
PO administration: T1/2, Cmax, Tmax, AUClast, AUCinf and F. Number of Points for Regression.
The pharmacokinetic data were described using descriptive statistics such as mean, standard deviation.
Results are outlined in Table 13 (IV), Table 14 (PO) and FIGS. 1-3. Data represent mean values from three mice.

[6] = male mouse liver microsomes 0.5 mg/mL, 2 μM, NADPH
[7] = IV, 10 mg/kg, plasma, mean of three mice
[8] = PO, 50 mg/kg, plasma, mean of three mice

Q: With `NCc1cccc(S(=O)(=O)c2cc(C(=O)N3CCS(=O)(=O)CC3)cc(C3OCCCO3)c2)c1` as the molecule, how does the IC50 [1] read?
A: > 30 µM

Q: What about the IC50 [2] of the same molecule?
A: 1 to 30 µM

Q: Which results are given for `CS(=O)(=O)N1CCN(C(=O)[C@H]2C[C@@H](C3CCCCC3)CN(S(=O)(=O)c3ccc(CN)s3)C2)CC1` (relative stereo)?
A: IC50 ([1]; tested form: TFA): < 0.5 µM; IC50 ([2]; tested form: TFA): < 0.5 µM; IC50 ([3]; tested form: TFA): < 0.5 µM; CLint [4, 6]: 65.08 μL/min/mg protein; T1/2 [4, 6]: 21.30 min; Predicted hepatic CL ([4]; mouse liver microsomes): 4.103 L/h/kg; Scaled-up CLint ([4]; mouse liver microsomes): 17.083 L/h/kg; AUCinf [5, 7]: 1.15 µg·h/mL; AUClast [5, 7]: 1.14 µg·h/mL; AUClast/D [5, 7]: 114; C0 [5, 7]: 3.34 µg/mL; CIobs [5, 7]: 148; MRTInf—obs [5, 7]: 49.2 min; T1/2 [5, 7]: 76.2 min; Vss—obs [5, 7]: 7.28 L/kg; F ([5]; PO 50 mg/kg versus IV 10 mg/kg): 31; AUCinf [5, 8]: 1.78 µg·h/mL; AUClast [5, 8]: 1.77 µg·h/mL; AUClast/D [5, 8]: 972; Cmax [5, 8]: 1.44 µg/mL; MRTInf—obs [5, 8]: 66.6 min; T1/2 [5, 8]: 69 min; Tmax [5, 8]: 30 min

Q: Which IC50 [1] does the source give for `NCc1cccc(S(=O)(=O)[C@@H]2C[C@H](C3CCCCC3)CN(C(=O)N3CCOCC3)C2)c1` (relative stereo) here?
A: > 30 µM

Q: What about the IC50 [2] of the same molecule?
A: < 0.5 µM

Q: What about the IC50 [3] of the same molecule?
A: 1 to 30 µM

Q: What does the source list for `NCc1ccnc(S(=O)(=O)N2C[C@@H](C(=O)N3CCOCC3)C[C@@H](N3CCCCC3)C2)c1` (relative stereo)?
A: IC50 ([1]; tested form: TFA): > 30 µM; IC50 ([2]; tested form: TFA): < 0.5 µM
